Measurements from PMC4332989 (Cellular signalling, 2014).

By UniProt entry, the sequences of proteins in these tests, tags left out.
UniProt P47746, whole entry: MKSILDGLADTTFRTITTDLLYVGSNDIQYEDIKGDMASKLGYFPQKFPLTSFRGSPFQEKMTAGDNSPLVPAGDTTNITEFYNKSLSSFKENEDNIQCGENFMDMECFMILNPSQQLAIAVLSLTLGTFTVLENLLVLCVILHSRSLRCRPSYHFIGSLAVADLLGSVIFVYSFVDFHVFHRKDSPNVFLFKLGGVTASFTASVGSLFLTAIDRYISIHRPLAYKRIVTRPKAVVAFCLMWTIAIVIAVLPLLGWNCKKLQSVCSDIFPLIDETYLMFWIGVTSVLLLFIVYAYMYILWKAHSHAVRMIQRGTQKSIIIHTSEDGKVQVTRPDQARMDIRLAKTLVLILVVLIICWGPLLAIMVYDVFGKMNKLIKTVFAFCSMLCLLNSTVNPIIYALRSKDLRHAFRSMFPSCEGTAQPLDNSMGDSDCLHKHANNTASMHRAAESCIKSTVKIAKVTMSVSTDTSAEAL

Tests used:
CB1R coupling to Gαi2 = CB1R coupling to Gαi2 (Mus musculus, UniProt P47746)
CB1R coupling to Gαo = CB1R coupling to Gαo (Mus musculus, UniProt P47746)
CB1R coupling to Gαi3 = CB1R coupling to Gαi3 (Mus musculus, UniProt P47746)
CB1R = CB1R (Mus musculus, UniProt P47746); format: cell-based; details: for change in basal phosphoERK1/2 levels: vs basal
CB1R coupling to Gαi1 = CB1R coupling to Gαi1 (Mus musculus, UniProt P47746)
[1] = CRIP1a XS membranes, co-incubation with CP55940

SMILES: Cc1c(C(=O)NN2CCCCC2)nn(-c2ccc(Cl)cc2Cl)c1-c1ccc(Cl)cc1 [SR141716A, N-(piperidin-1-yl)-5-(4-chlorophenyl)-1-(2,4-dichlorophenyl)-4-methyl-1H-pyrazole-3-carboxamide]
- SR141716A-reversable constitutive activity, Gαi2 (CB1R coupling to Gαi2; 100 nM): No significant
- effect on CP55940-stimulated [35S]GTPγS binding to Gαi2 (CB1R coupling to Gαi2; [1]): reversed
- decrease in constitutive binding of [35S]GTPγS to Gαo (CB1R coupling to Gαo; CRIP1a KD membranes, 100 nM, alone): 43±5 % below basal
- inverse agonist response for Gαo (CB1R coupling to Gαo; CRIP1a over-expression (XS) membranes, 100 nM, alone): attenuated
- decrease in constitutive binding of [35S]GTPγS to Gαo (CB1R coupling to Gαo; Control membranes, 100 nM, alone): 17±13 % below basal
- decrease in constitutive binding of [35S]GTPγS to Gαo (CB1R coupling to Gαo; WT membranes, 100 nM, alone): 30±5 % below basal
- effect on CP55940-promoted coupling between Gαo and CB1R (CB1R coupling to Gαo; all cell lines, co-incubation with 100 nM CP55940): attenuated
- inverse agonist response, Gαi3 (CB1R coupling to Gαi3; CRIP1a KD membranes, 100 nM): 54±7 % below basal
- attenuation of the Gαi3 constitutive activation (CB1R coupling to Gαi3; CRIP1a XS membranes, 100 nM): resistant
- reversal of constitutive CB1R-mediated Gαi3 activation (CB1R coupling to Gαi3; Control membranes, 100 nM, relative to basal): −43±8%
- CP55940-stimulated [35S]GTPγS binding to Gαi3 during co-incubation with SR141716A (CB1R coupling to Gαi3; WT and Control membranes, 100 nM CP55940 plus SR141716A): absent
- reversal of constitutive CB1R-mediated Gαi3 activation (CB1R coupling to Gαi3; WT membranes, 100 nM): −41±6 % relative to basal
- SR141716A-reversible constitutive phosphoERK1/2 compared with WT and Control (CB1R; CRIP1a KD cells, 10 nM, 5 min): enhancement
- effect on CP55940-stimulated phosphoERK1/2 (CB1R; CRIP1a KD cells, 1 μM SR141716A): eliminated
- effect on CP55940-stimulated phosphoERK1/2 (CB1R; CRIP1a XS cells, 1 μM SR141716A): completely blocked
- effect on basal phosphoERK1/2 levels (CB1R; CRIP1a XS clones, 10 nM): insensitive
- change in basal phosphoERK1/2 levels (CB1R; N18TG2 WT cells, 10 nM, 5 min): −17±4%
- change in basal phosphoERK1/2 levels (CB1R; N18TG2 empty vector Control cells, 10 nM, 5 min): −20±6%
- effect on CP55940-stimulated phosphoERK1/2 (CB1R; WT and Control cells, concurrent 1 μM SR141716A): completely abolished
- SR141716A-reversable constitutive activity, Gαi1 (CB1R coupling to Gαi1; 100 nM): No significant
- effect on CP55940-stimulated [35S]GTPγS binding to Gαi1 (CB1R coupling to Gαi1; [1]): reversed

Like-named read-outs stand apart in the source and are kept apart here.
